From PubChem BioAssay AID488969 (Vanderbilt High Throughput Screening Facility, 2010)
This is a selection; strong and weak results do not stand in their true shares.

Sequences of proteins named here, by UniProt entry; tags and fusion partners are left off. A change or cut given only in a name is not applied to a line headed by its entry.
UniProt P70579: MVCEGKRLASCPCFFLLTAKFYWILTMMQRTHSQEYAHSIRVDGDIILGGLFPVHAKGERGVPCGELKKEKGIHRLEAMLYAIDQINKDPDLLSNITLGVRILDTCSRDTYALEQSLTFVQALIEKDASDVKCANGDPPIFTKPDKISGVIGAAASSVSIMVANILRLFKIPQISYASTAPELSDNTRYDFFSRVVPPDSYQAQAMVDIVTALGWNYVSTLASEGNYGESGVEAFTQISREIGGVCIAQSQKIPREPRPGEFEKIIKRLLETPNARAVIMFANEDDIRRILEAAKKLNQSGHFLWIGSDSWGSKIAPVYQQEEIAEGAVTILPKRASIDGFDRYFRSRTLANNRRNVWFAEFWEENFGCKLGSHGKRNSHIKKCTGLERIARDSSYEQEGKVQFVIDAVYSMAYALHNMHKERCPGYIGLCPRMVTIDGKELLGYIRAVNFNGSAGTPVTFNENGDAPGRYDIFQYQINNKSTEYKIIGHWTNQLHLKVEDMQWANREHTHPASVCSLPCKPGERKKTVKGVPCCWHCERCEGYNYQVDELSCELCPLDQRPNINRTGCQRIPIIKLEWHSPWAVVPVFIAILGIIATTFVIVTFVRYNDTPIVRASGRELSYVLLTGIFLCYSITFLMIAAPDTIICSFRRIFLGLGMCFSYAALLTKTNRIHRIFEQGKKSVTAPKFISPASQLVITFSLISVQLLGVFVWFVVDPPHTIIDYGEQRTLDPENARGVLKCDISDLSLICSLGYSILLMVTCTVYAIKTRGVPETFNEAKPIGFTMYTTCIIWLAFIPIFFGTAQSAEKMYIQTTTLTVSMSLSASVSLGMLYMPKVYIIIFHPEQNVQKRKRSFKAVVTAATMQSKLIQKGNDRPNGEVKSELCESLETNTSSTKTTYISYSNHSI

Biological target: Metabotropic glutamate receptor 8 (Rattus norvegicus) (UniProt P70579)
Test: rat mGluR8 modulators via GIRK flux, primary screen, cell-based, thallium flux, HTS (AID 488969)
Conditions: HEK293 rat mGluR8, GIRK (G protein-gated inwardly rectifying potassium channel) thallium flux, FluoZin2; at 10 µM; stronger effect = higher value; submaximal glutamate (EC20) added with thallium

SMILES	z-score
CCN(N=Nc1nonc1N)c1nonc1N	-0.0982
CCOP(=O)(Nc1ccccc1)OCC	-0.127
Cc1cc(SC(NC(=O)c2ccc(F)cc2)C(Cl)(Cl)Cl)ncn1 (stereo not given)	0.536
Oc1ccccc1CNc1ccccn1	-0.268
CC(C)CC(=O)NC(Sc1ccc(Cl)cc1)C(Cl)(Cl)Cl (stereo not given)	-0.573
CN1CCCC(OC(=O)C(c2ccccc2)c2ccccc2)C1 (stereo not given)	-0.259
CC1CCN(C(=O)Oc2c(Cl)cc(Cl)c3cccnc23)CC1	-0.181
CCc1nc2c(n1)c1c(non1O)c1c2no[n+]1[O-]	-0.122
CC(=O)N1C2C3N(C(C)=O)C1C1N(C(C)=O)C(C(N1C(C)=O)N3C(C)=O)N2C(C)=O	-0.0533
O=[N+]([O-])c1cccc2n[nH]nc12	-0.414
O=C(OC1CN2CCC1CC2)c1cccc(Cl)c1 (stereo not given)	-2.06
O=P(Nc1nccs1)(c1ccccc1)c1ccccc1	0.11
CC(C)C(=O)NC(Sc1ccccc1)C(Cl)(Cl)Cl (stereo not given)	-0.117
O=P1(Nc2nc3ccc(Cl)cc3s2)COc2ccccc2O1 (stereo not given)	0.106
CCC(=O)N1C2C3N(C(=O)CC)C1C1N(C(=O)CC)C(C(N1C(=O)CC)N3C(=O)CC)N2C(=O)CC	-0.214
COC(=O)c1cc2c(s1)N=C(c1ccccc1)N(C)P2(=O)N1CCOCC1 (stereo not given)	0.062
CCOP1(=S)c2c(C)nn(CCC#N)c2N=C(c2ccc(F)cc2)N1C (stereo not given)	0.448
O=[N+]([O-])c1ccc2c(c1)nnn2O	0.00196

SMILES	z-score
CCOP1(=S)c2c(C)nn(CCC#N)c2N=C(c2ccccc2F)N1C (stereo not given)	-0.176
COc1cc(C2NCCC3(OCCO3)C2(C)C)cc(OC)c1OC (stereo not given)	0.0961
Cc1cccc(OCC(=O)OC2CN3CCC2CC3)c1 (stereo not given)	-0.00121
CC1(CBr)Cn2c(nc3ccccc3c2=O)S1 (stereo not given)	-0.199
O=P1(Nc2ccc(Br)cn2)COc2ccccc2OC1	0.0639
Cc1ccc(OCC(=O)OC2CN3CCC2CC3)cc1 (stereo not given)	0.212
O=P1(Nc2ncccn2)COc2ccccc2OC1	0.429
Cc1nn(-c2ccccc2)c2c1P(=O)(N1CCOCC1)N(C)C(c1ccccc1)=N2 (stereo not given)	0.435
Cc1cc(SC(NC(=O)c2ccccc2)C(Cl)(Cl)Cl)nc(C(C)C)n1 (stereo not given)	-0.219
CCC(C)N(CC(C)C)C(=S)SC(NC(C)=O)C(Cl)(Cl)Cl (stereo not given)	1.4
O=C(COc1ccccc1)OC1CN2CCC1CC2 (stereo not given)	0.278
COP1(=S)c2c(C)nn(CCC#N)c2N=C(c2ccc(F)cc2)N1C (stereo not given)	0.0466
Cc1c2c(nc3ccccc13)SC(C(Cl)Cl)C2 (stereo not given)	-0.583
O=C(OC1CN2CCC1CC2)C12CC3CC(CC(C3)C1)C2 (stereo not given)	-0.0387
CCN(CC)C(=S)SC(NC=O)C(Cl)(Cl)Cl (stereo not given)	0.0409
ClCCSc1nnc(-c2cccnc2)o1	-0.868
Cc1ccc2nc3c(c(C)c2c1)CC(C(Cl)Cl)S3 (stereo not given)	-0.497
